Only a part is listed here, and it is no random draw. Calls of active or inactive are those of the source.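 The calls were made as follows: active = fall in fluorescence gain of 50% or more versus controls, with final raw signal at or below 3038400; inconclusive = same 50% fall but final raw signal above 3038400; inactive = fall in fluorescence gain under 50%.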

By UniProt entry, the sequences of proteins in these tests, tags left out.
UniProt Q03530, whole entry: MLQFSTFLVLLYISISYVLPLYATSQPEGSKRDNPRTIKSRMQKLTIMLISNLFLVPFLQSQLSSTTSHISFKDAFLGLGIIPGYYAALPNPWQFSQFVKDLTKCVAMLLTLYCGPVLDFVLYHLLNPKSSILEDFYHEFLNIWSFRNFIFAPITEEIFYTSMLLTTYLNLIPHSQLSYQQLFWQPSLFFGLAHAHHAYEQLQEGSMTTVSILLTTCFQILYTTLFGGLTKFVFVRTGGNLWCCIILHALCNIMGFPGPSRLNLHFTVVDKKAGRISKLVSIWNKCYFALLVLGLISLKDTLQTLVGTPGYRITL

The assay concerns the target CAAX prenyl protease 2 (Saccharomyces cerevisiae (strain ATCC 204508 / S288c)) (UniProt Q03530). Briefly: blockers of Rce1 CaaX peptide cleavage – biochemical, fluorescence, cell-free homogeneous, primary screen (AID 2563). The following applies: yeast membranes, quenched prenylated peptide cleavage fluorescence.
As for `O=[N+]([O-])c1ccc2c(c1)C=Nc1ccccc1O2`, the outcome was inactive.

Take `Cc1cccc(C)c1OP(C)(N)=O` (stereo not given): the molecule was classed as inactive.

For the molecule `Cc1ccc(OP(=O)(Nc2ccc([N+](=O)[O-])cn2)Oc2ccc(C)cc2)cc1`, the molecule was called inactive.

Regarding `CC(C)(C)c1ccc(OP(C)(=O)Nc2ccc(SC(F)(F)F)cc2)cc1` (stereo not given), the molecule was classed as inactive.

Take `C[As](=O)(O)c1cccc(C(=O)O)c1`: the molecule was classed as inactive.

With `O=[As](O)(c1ccc(O)cc1)c1ccccc1O`, the result was inactive.

With `O=[N+]([O-])c1cc([N+](=O)[O-])c(Nc2cccnc2)c([N+](=O)[O-])c1`, the molecule was classed as inactive.

For `Cc1cc(C)cc(OP(C)(N)=O)c1` (stereo not given), the call was inactive.

Turning to `COc1ccc(OP(C)(=O)Nc2cccc(F)c2)cc1` (stereo not given), the result was inactive.

With `O=[N+]([O-])c1cc([N+](=O)[O-])c(-c2ccn[nH]2)s1`, the molecule was classed as inactive.

Consider `CC(C)NC(=O)NP(=O)(Oc1ccccc1)Oc1ccccc1`, for which the call was inactive.

As for `COc1ccccc1OP(C)(=O)Nc1cc(Cl)ccc1C` (stereo not given), the call was inactive.

Regarding `CCN(CC)C(=S)SC(NC=O)C(Cl)(Cl)Cl` (stereo not given), the molecule was called inactive.

For `CC(C)c1ccc(OP(=O)(Nc2ccccn2)Oc2ccccc2F)cc1` (stereo not given), the molecule was called inactive.

On to `COc1ccccc1OP(C)(=O)Nc1ccc(C)cc1` (stereo not given), for which the molecule was called inactive.

Take `ClCCSc1nnc(-c2cccnc2)o1`: the outcome was inactive.

Turning to `CCOC(=O)c1ccc(NP(C)(=O)Oc2ccccc2)cc1` (stereo not given), the result was inactive.

On to `COc1cc(I)ccc1[As](=O)(O)O`, for which the call was inactive.

With `COc1ccc2nc(NP(=O)(c3ccccc3)c3ccccc3)sc2c1`, the outcome was inactive.

For `Cc1cc(=O)[nH]c(N[N+](=O)[O-])n1`, the result was inactive.

For the molecule `CCN(CC)CCCOC(=O)C(O)(c1ccccc1)c1ccccc1`, the call was inactive.

For the molecule `O=C(OC1CN2CCC1CC2)C12CC3CC(CC(C3)C1)C2` (stereo not given), the result was inactive.

Regarding `Cc1c2c(nc3ccccc13)SC(C(Cl)Cl)C2` (stereo not given), the result was inactive.

For the molecule `COc1ccc(N/C(=N/P(=O)(N2CCOCC2)N2CCOCC2)N2CCOCC2)cc1`, the molecule was classed as inactive.

In the case of `O=C(Nc1ccncc1[N+](=O)[O-])c1ccc([N+](=O)[O-])cc1[N+](=O)[O-]`, the outcome was inactive.

Consider `Cc1cc(C)cc(OP(C)(=O)Nc2ccc(SC(F)(F)F)cc2)c1` (stereo not given), for which the molecule was classed as inactive.

For `CP(=O)(NC(=O)Nc1ccccc1)Oc1ccccc1` (stereo not given), the result was inactive.

Consider `O=C(COc1ccccc1)OC1CN2CCC1CC2` (stereo not given), for which the molecule was called inactive.

As to `CCc1ccc(OP(C)(=O)N2CCN(c3ccc([N+](=O)[O-])cc3)CC2)cc1` (stereo not given), the molecule was classed as inactive.

As for `CP(=O)(Oc1ccccc1)OC(c1ccccc1)C(F)(F)F` (stereo not given), the molecule was called inactive.

Regarding `COP1(=S)c2c(C)nn(CCC#N)c2N=C(c2ccc(F)cc2)N1C` (stereo not given), the molecule was called inactive.

Regarding `Cc1cccc(C)c1OP(C)(=O)Nc1ccc(SC(F)(F)F)cc1` (stereo not given), the call was inactive.

As to `CP(=O)(Nc1ccccn1)Oc1ccc(Cl)cc1` (stereo not given), the molecule was classed as inactive.

For `CCC(C)N(CC(C)C)C(=S)SC(NC(C)=O)C(Cl)(Cl)Cl` (stereo not given), the result was inactive.

As to `O=[N+]([O-])c1cc([N+](=O)[O-])c(O)c([N+](=O)[O-])c1.c1ccc(Oc2ccncc2)cc1`, the molecule was called inactive.

Turning to `CCOC(=O)c1ccc(NC(=O)C(C)(CCl)SC)cc1` (stereo not given), the molecule was called inactive.

As for `CCOC(=O)c1ccc(NP(C)(=O)Oc2ccc(OC)cc2)cc1` (stereo not given), the call was inactive.

`O=C(OC1CN2CCC1CC2)c1cccc([N+](=O)[O-])c1` (stereo not given): the molecule was classed as inactive.

Regarding `CCOP(C)(=S)SCC(=O)NC(C)C(=O)O` (stereo not given), the molecule was called inactive.

As for `Cc1cc(SC(NC(=O)c2ccccc2)C(Cl)(Cl)Cl)nc(C(C)C)n1` (stereo not given), the call was inactive.

`CCCCOc1ccc(C(=O)NCC2(N3CCCCC3)CCCCC2)cc1OC`: the call was inactive.

On to `CCOC(=O)Nc1ccc([As](=O)(O)O)c(O)c1`, for which the result was inactive.

Take `O=[N+]([O-])c1ccc(Nc2ccc(Oc3ccc([N+](=O)[O-])cc3[N+](=O)[O-])cc2)c([N+](=O)[O-])c1`: the outcome was inactive.

Take `CP(=O)(Nc1ccccc1Br)Oc1ccccc1` (stereo not given): the result was inactive.

For `COc1ccccc1OP(C)(=O)Nc1ccccc1` (stereo not given), the call was inactive.

Consider `Cc1cc(SC(NC=O)C(Cl)(Cl)Cl)ncn1` (stereo not given), for which the result was inactive.

On to `O=P(Nc1ccccn1)(c1cccc2ccccc12)c1cccc2ccccc12`, for which the outcome was inactive.

On to `CCOC(=O)Nc1cccc([As](=O)(O)O)c1`, for which the outcome was inactive.

Take `CP(=S)(Nn1cnnc1)Oc1ccccc1` (stereo not given): the call was inactive.

Regarding `O=C(/C=C/c1ccccc1)OC1CN2CCC1CC2` (stereo not given), the molecule was called inactive.

Consider `CCOC(=O)C(CC)C1=NC(C)(C)Cc2ccccc21.O=[N+]([O-])c1cc([N+](=O)[O-])c(O)c([N+](=O)[O-])c1` (stereo not given), for which the molecule was classed as inactive.

For `CN(C)C1(CNC(=O)c2ccc(S(C)(=O)=O)cc2)CCCCC1`, the result was inactive.

With `O=[N+]([O-])c1cc([N+](=O)[O-])c(Nc2nnnn2CCO)c([N+](=O)[O-])c1`, the molecule was called inactive.

As to `COc1cc(C2NCCC3(OCCO3)C2(C)C)cc(OC)c1OC.O=[N+]([O-])c1cc([N+](=O)[O-])c(O)c([N+](=O)[O-])c1` (stereo not given), the call was inactive.

Regarding `Cc1ccc(C(=O)OC2CN3CCC2CC3)cc1` (stereo not given), the outcome was inactive.

As to `CC1CCC(C(C)C)C(OP(=O)(Nc2ccccn2)c2ccccc2)C1` (stereo not given), the outcome was inactive.

As for `Cc1nn(-c2ccccc2)c2c1P(=O)(N1CCOCC1)N(C)C(c1ccccc1)=N2` (stereo not given), the molecule was called inactive.

With `Cc1ccc(OCC(=O)OC2CN3CCC2CC3)cc1` (stereo not given), the result was inactive.

On to `O=[As](O)(c1cccs1)c1cccs1`, for which the molecule was classed as inactive.

On to `O=P1(Nc2ccc(Br)cn2)COc2ccccc2OC1`, for which the result was inactive.

As for `CCCOc1ccc(NP(C)(=O)Oc2ccc(Cl)cc2)cc1` (stereo not given), the call was inactive.

With `CP(=O)(Nc1ccc(SC(F)(F)F)cc1)Oc1ccccc1` (stereo not given), the result was inactive.

For the molecule `Nc1cccc([As](=O)(O)c2ccccc2)c1`, the molecule was classed as inactive.

Consider `CN1CCCCC1COC(=O)C1(O)c2ccccc2CCc2ccccc21` (stereo not given), for which the molecule was classed as inactive.

For `COc1ccccc1OP(C)(=O)Nc1c(C)cccc1C` (stereo not given), the molecule was classed as inactive.

For the molecule `O=P1(Nc2ncccn2)COc2ccccc2OC1`, the result was inactive.

Regarding `CC(C)(C)C(=O)NC(Sc1ncccn1)C(Cl)(Cl)Cl` (stereo not given), the outcome was inactive.

Turning to `Clc1n[nH]nc1-c1nn[nH][15n]1`, the outcome was inactive.

As for `CCOP(=O)(Nc1ccc(C)cn1)OCC`, the molecule was called inactive.

With `CN(CCCl)Cc1cc(Cl)c(NC2=NCCN2)c(Cl)c1`, the molecule was classed as inactive.

As for `CCOP(=O)(NC(=NC(C)c1ccccc1)NC(C)c1ccccc1)OCC` (stereo not given), the outcome was inactive.

Regarding `CCC1=CC2Cc3nc4ccc(Cl)cc4c(N)c3C(C1)C2` (stereo not given), the outcome was inactive.

As for `O=P1(Nc2ccccn2)COc2ccccc2OC1`, the call was inactive.

Take `CC1(CBr)Cn2c(nc3ccccc3c2=O)S1` (stereo not given): the outcome was inactive.

As for `O=[As](O)(c1ccccc1Br)c1ccccc1Br`, the molecule was classed as inactive.

(Values after PubChem BioAssay AID2563 (Broad Institute, 2010).)
